# System: beta-galactosidase
# Assay: Effect of heavy metals and other toxicants on beta-galactosidase activity
# Conditions: eliminated by adding a reducing agent such as sodium thiosulfate
# Excerpt: Therefore, in the example described above, fluorescence reduction resulting from exposure of beta-galactosidase to the test sample can be indicative of heavy metal pollution in the sample. Advantageously, it has been determined that beta-galactosidase activity is not inhibited by pollutants or toxicants other than heavy metals. […] Although strong oxidants such as chlorine may slow beta-galactosidase activity, the effect of such compounds can be rapidly and conveniently eliminated by adding a reducing agent such as sodium thiosulfate. Therefore, the novel assay and kit described here provide very selective means for detecting the presence of heavy metals even when the metals are mixed with other toxicants.
substance,measurement,value
chlorine,effect on beta-galactosidase activity (in words),may slow beta-galactosidase activity

# Reference: patent publication US5633144A, “Assay pad and method for determination of the presence of total coliforms” (priority 1994, dated 1997)
